This note sets out measurements from paper PMC4257678, “Influence of Sampling on the Determination of Warfarin and Warfarin Alcohols in Oral Fluid” (PLoS ONE, 2014).

A short description of this data set: clinical. To be noted: human, in vivo, po.

Consider `CC(=O)CC(c1ccccc1)c1c(O)c2ccccc2oc1=O` (stereo not drawn) [WAR, 3-(α-acetonylbenzyl)-4-hydroxycoumarin], for which the Kp (non-stimulated OF/UP ratio (mean ± s.d.)) is 0.3 ± 0.1, the Kp (non-stimulated OF/UP ratio (range)) fell in the range of 0.1 to 0.5, the Kp (stimulated OF/UP ratio (mean ± s.d.)) is 0.7 ± 0.2 and the Kp (stimulated OF/UP ratio (range)) lay within 0.3 to 0.9.
